# Measurements as given in patent US6727253B2, “Treatment of accidental extravasation of anthracyclines” (Antianthra APS, priority 1999, dated 2004).
# Like-named read-outs stand apart in the source and are kept apart here.
# Test system: SC epirubicin induced wounds in mice
# Conditions: Example 8
# [1] = epirubicin 4 mg/kg sc + ICRF-187 125 mg/kg IP
# [2] = epirubicin 4 mg/kg sc + ICRF-187 250 mg/kg IP
# [3] = epirubicin 4 mg/kg sc + ICRF-187 375 mg/kg IP
smiles,measurement,setting,value
"C[C@@H](CN1CC(=O)NC(=O)C1)N1CC(=O)NC(=O)C1 [ICRF-187, (+)-1,2-bis(3,5-dioxopiperazinyl-1-yl)propane]",Mean AUC,[1],147 mm^2 × days
same,Mean DWw ± SEM,[1],18.5 ± 0.5 days
same,Mean TTWw ± SEM,[1],5.5 ± 0.5 days
same,Mean AUC,[2],134 mm^2 × days
same,Mean DWw ± SEM,[2],19.5 ± 0.5 days
same,Mean TTWw ± SEM,[2],5.0 days
same,Mean AUC,[3],101 mm^2 × days
same,Mean DWw ± SEM,[3],18.0 days
same,Mean TTWw ± SEM,[3],5.0 days
same,"AUCs and ulcer rates, dose dependence","epirubicin 4 mg/kg sc, ICRF-187 125, 250 or 375 mg/kg IP, AUC differences not statistically significant",trend towards a dose-dependent beneficial effect
